# Antibody variant affinities, Ab-14 heavy chain, assay 1

The target is the same throughout: PDVDLGDISGINAS, from the HR2 region of SARS-CoV-2 spike.

Ab-14 is the parent antibody, in scFv form: VH, then a (GGGGS)3 linker, then VL. The light chain is unchanged in all variants.
VH: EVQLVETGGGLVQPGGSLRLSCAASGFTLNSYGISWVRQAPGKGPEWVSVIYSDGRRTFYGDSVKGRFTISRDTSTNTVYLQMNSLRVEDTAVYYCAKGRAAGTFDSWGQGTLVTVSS
VL: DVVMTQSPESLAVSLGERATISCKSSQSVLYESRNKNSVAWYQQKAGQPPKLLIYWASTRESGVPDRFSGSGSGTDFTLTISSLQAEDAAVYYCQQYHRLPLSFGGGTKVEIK

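Variants in AAYL49 differ from the parent at up to three CDR positions; double and triple changes were sampled at random. The scFvs were displayed on barcoded MATa yeast, the peptide on MATalpha yeast. Pairs that bind mate more often; barcode pairs of the diploids are counted by sequencing. The ratio of observed to expected reads was calibrated, replicate by replicate, on BCL2-family standards whose Kd was known from biolayer interferometry. There are three technical replicates.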

Positions count from residue 1 of the parent VH; S31F puts F in place of S.
The read-out is the apparent dissociation constant on a log10 scale (nM): the lower, the stronger.
"nd" means that the variant was in the library but no mating with the target was seen in that replicate; the authors take this as a sign of poor binding, and no number exists.
As a blank, each scFv also met three strains without target: over library AAYL49, 15% of these pairings were detected, typically at 4.06 and seldom below 2.83.

changes | log10 Kd (nM) by replicate
S31F G61M V64S | 4.38 / nd / nd
S53K S107H | 5.45 / nd / nd
F27G D62C | nd / nd / nd
T28Q I34C Y52R | nd / 3.87 / nd
V50L Y52V F105K | nd / nd / 6.10
N30R D54A T104S | nd / nd / nd
T58Y G103S D106K | nd / nd / 4.66
S63M D106A | 1.30 / 1.72 / 1.35
G33R S53N F59M | nd / nd / nd
S53V T58L D106M | nd / nd / nd
G26N N30Q | 1.79 / 1.79 / 2.26
T28A L29M F59Q | nd / nd / nd
T28K G61N | 3.26 / 2.44 / 3.78
G33M G55Y R100V | nd / 3.55 / nd
Y32F R57G F59Q | 3.60 / nd / nd
V64T D106P | nd / nd / 3.43
F27D V50W R57Q | 3.63 / nd / 4.21
I34R S53F D106Q | nd / nd / nd
T28P S35I A101S | nd / nd / nd
S31H K65G G103V | nd / nd / nd

The remaining entries, values ahead:

log10 Kd (nM) by replicate | changes
nd / nd / 3.35 | G33C F59L G61L
6.47 / nd / 4.21 | L29S S35Q A102V
nd / nd / 5.12 | S31L V50F F105R
4.00 / 2.84 / nd | S53T S63R G99F
1.69 / 1.94 / 2.12 | N30E R56W R100L
nd / nd / nd | G33Y I34W T104N
nd / nd / nd | G26M T58L A102N
nd / nd / nd | N30I S31P G55S
nd / nd / nd | T28G G55V D62T
4.39 / 4.34 / 5.16 | F27V S53C R56C
nd / 4.21 / 3.44 | G55L V64R S107A
6.08 / 4.57 / 4.24 | T28Y G55A V64F
nd / nd / nd | G33S Y52W A102Q
0.49 / 0.80 / 0.47 | F59G G61Y R100H
nd / nd / nd | R57T T58G S107Q
nd / nd / nd | G26S Y60H G103E
nd / 3.50 / nd | F27V G99D R100L
4.83 / nd / nd | S53R D54F T104N
4.67 / nd / nd | L29C R100I T104E
nd / nd / nd | R56C T58N A102K
nd / nd / nd | G26Q Y52G D106C

Excerpt, the first 4 entries:

changes,log10 Kd (nM) by replicate
S31F G61M V64S,4.38 / nd / nd
S53K S107H,5.45 / nd / nd
F27G D62C,nd / nd / nd
T28Q I34C Y52R,nd / 3.87 / nd

The measurements come from Engelhart et al. 2022 (doi:10.1038/s41597-022-01779-4) through the FLAb antibody collection.